Values quoted from earlier work, collected in paper PMC5306082, “Physiologically based kinetic modeling of the bioactivation of myristicin” (Archives of Toxicology, 2016).
Read-outs that look alike come from different tables or passages of the source.

What was measured:
rats or mice = conditions: chronic oral exposure to high doses, or male CD-1 mice preweaning; ref Borchert et al. [1973]; Drinkwater et al. [1976]; National Toxicology [2000]; cited from earlier work
male rats = conditions: ref National Toxicology [2000], cited from earlier work
[1] = test system: freshly isolated rat hepatocytes in primary culture; conditions: 10^−6 to 10^−3 M; ref Howes et al. [1990]; cited from earlier work

For `C=CCc1ccc(OC)c(OC)c1` [methyleugenol], the “induction of hepatic tumors” value (rats or mice) is listed as “induce hepatic tumors”, the liver tumor frequency (male rats; 37 mg methyleugenol/kg bw per day) is listed as 3/50 and the liver tumor frequency (male rats; 75 mg methyleugenol/kg bw per day) is listed as 14/50. The liver tumor frequency (male rats; 150 mg methyleugenol/kg bw per day) was 25/50 and the cytotoxicity [1] was “cytotoxicity”.
